# Compounds with a hit are over-represented: about 2.3% of the library has one in this group of screens.
# ARFGAP1 inh: inhibits rat ARF GTPase activating protein 1 | Q62848 | Arfgap1-stimulated ARF1 GTP hydrolysis, GDP FP detection | inhibition, % at 16.5 µM | actives 0.26% (n = 360,000);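 active means inhibition above a per-plate limit, mean inhibition of low control wells plus 3 SD, cut at about 25% in these data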;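 further: 0% = DMSO wells with enzyme and 100% = wells lacking Arfgap1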
#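 Assay system: Rat Arfgap1 GAP domain (His6, aa 1-136), purified enzyme | Buffer or medium: HEPES 25 mM pH 7.5, NaCl 150 mM, MgCl2, DTT | Schedule: GTP hydrolysis reaction 2 h at 25 °C | Signal: FP of antibody-bound GDP Alexa 633 tracer, ex 620/em 688 nm | Measure: Percent inhibition of Arfgap1-stimulated GTP hydrolysis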
# MC4R antagonist: human MC4R antagonism in cAMP assay; P32245; MC4R-expressing cells, MTII-stimulated cAMP, LANCE TR-FRET; inhibition, % at 6.5 µM; actives 0.48% (n = 360,000); AID 540295;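 active means inhibition above its plate's cutoff, the mean of tested wells on that plate plus 3 SD, cut at about 29% in these data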;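 further: 0% = Melanotan II alone and 100% = Melanotan II plus saturating MCL0020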
#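 System: U2OS-MC4R stable cell line; Technique: Eu-cAMP/anti-cAMP TR-FRET, emission 671 nm; Repeats: single well per compound; Also added: Melanotan II; Dosing: one concentration, 6.5 µM nominal; Schedule: 30-min compound, 1-h challenge, 1-h detection, room temperature.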
# ASAP1 inh: ASAP1 ArfGAP inhibition. Q9ULH1. actives 0.19% (n = 360,000). inhibition, % at 16.5 µM. ASAP1-stimulated ARF1 GTP hydrolysis, GDP FP detection; in the data active means inhibition above about 25%;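 further: 0% = vehicle with enzyme and substrate and 100% = no enzyme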
# CendR NRP1 mod: NRP-1/CendR interaction modulation. FAM-RPARPAR peptide binding to NRP-1, fluorescence polarization. inhibition, % at 25 µM. actives 0.85% (n = 360,000). AID 602438;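 active means inhibition or corrected inhibition above about 18%, plus a signal ratio from 0.5 to 1.5, limit read from the data, passing the limit was not always enough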
# UUG fidelity: modulators of start codon recognition fidelity in yeast. S. cerevisiae UUG-firefly luciferase reporter, luminescence/redox ratio. activity score, % at 18.7 µM. 350,000 tested, 0.13% active;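 active = replicate mean at a twofold rise or more, about +100% in these data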;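 note: firefly luciferase made from a UUG start codon reports start codon fidelity; reporter light over untreated wells divided by growth signal over untreated wells; some hits fall short of that in this replicate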
# MC4R barr agon: activates human MC4R beta-arrestin recruitment | P32245 | U2OS MC4R beta-arrestin complementation, luminescence; percent of melanotan II response, DMSO zero | activation, % at 8.9 µM | actives 0.98% (n = 360,000);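 active means activation above a per-plate cutoff, the mean activation of sample wells on that plate plus 3 SD, cut at about 8% in these data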
# Numbers without * were called inactive; · = not tested or not shown.
SMILES,ARFGAP1 inh,MC4R antagonist,ASAP1 inh,CendR NRP1 mod,UUG fidelity,MC4R barr agon
CC(=O)CSc1nnc(-c2ccc(S(=O)(=O)N3CCCC3)cc2)n1C,-5,2,-9,25*,-11,2
C[C@H](CO)N1C[C@H](C)[C@@H](CN(C)C(=O)Nc2ccc(C(F)(F)F)cc2)Oc2c(NS(=O)(=O)c3ccccc3)cccc2C1=O,7,4,14,36*,3,-1
C[C@H](CO)N1C[C@H](C)[C@@H](CN(C)C(=O)Nc2ccc3c(c2)OCO3)Oc2c(NS(=O)(=O)c3ccc(F)cc3)cccc2C1=O,10,9,0,31*,-12,0
C[C@H]1CN([C@@H](C)CO)C(=O)c2cccc(NS(=O)(=O)c3ccccc3)c2O[C@H]1CN(C)C(=O)Nc1ccc(C(F)(F)F)cc1,·,·,·,·,-10,·
COc1ccc(S(=O)(=O)Nc2ccc3c(c2)CC(=O)N([C@H](C)CO)C[C@@H](C)[C@@H](CN(C)S(=O)(=O)c2cccs2)O3)cc1,·,·,·,·,30,·
Cc1nc2ccccc2cc1OCc1ccccc1,-7,-2,1,3,-13,8.5*
Cc1ccc(C(=O)NC(=S)NCC(=O)c2ccccc2)cc1,9,-6,-3,2,-10,11*
O=C(CNC(=S)NC(=O)c1cccs1)c1ccccc1,10,-12,3,-5,-17,-1
C[C@H](CO)N1C[C@H](C)[C@H](CN(C)C(=O)C2CCC2)Oc2cc(C#Cc3ccncc3)ccc2S1(=O)=O,·,·,·,·,-2,·
Cc1noc(C)c1NC(=O)N(C)C[C@H]1Oc2c(NC(=O)C3CCOCC3)cccc2C(=O)N([C@@H](C)CO)C[C@H]1C,·,·,·,·,-6,·
CC(=O)NCCNc1nc(NC(C)C)nc2ccsc12,4,0,-6,26*,-10,0
C[C@@H]1CN([C@H](C)CO)C(=O)c2cc(-c3cncnc3)cnc2O[C@@H]1CN(C)C(=O)Cc1ccccn1,·,·,·,·,4,·
CC(C)(C)c1nn(-c2ccccc2)c2[nH]c(=O)c(CNCc3ccco3)cc12,-1,8,1,6,5,2
Cc1ccc(CNCc2cc3c(C(C)(C)C)nn(-c4ccccc4)c3[nH]c2=O)cc1,0,13,3,-17,-7,8.9*
CCN(CC)C(=O)C1CCCN(C(=O)Nc2ccc3nsnc3c2)C1 (centres undefined),5,18,-8,34*,-6,2
Cc1ccc(S(=O)(=O)Nc2cccc3c2O[C@H](CN(C)Cc2ccc(C(F)(F)F)cc2)[C@@H](C)CN([C@H](C)CO)C3=O)cc1,·,·,·,·,12,·
COc1cccc(-c2sc3ccc(OC)cc3c2-c2ccc(O)cc2)c1,13,3,21,3,-42,2
COc1cccc(-c2sc3ccc(OC)cc3c2-c2ccc(OCCN(C)C)cc2)c1,20,13,19,6,-1,10*
O=C(NCc1ccccc1)c1c[nH]c2ccc(F)cc2c1=O,3,-1,8,-4,13,-1
CCOc1ccc2[nH]cc(C(=O)NCc3ccc(F)cc3)c(=O)c2c1,-10,-8,0,39*,6,-1
CCOC(=O)CSc1nc2nc(C)cc(C)n2n1,3,11,7,-8,-19,-1
CCCn1c(C)cc(C(=O)CSc2nc3nc(C)cc(C)n3n2)c1C,7,-7,-10,33*,-10,-3
CC(C)C#Cc1cnc2c(c1)C(=O)N([C@@H](C)CO)C[C@H](C)[C@@H](CN(C)Cc1cccc(F)c1)O2,·,·,·,·,5,·
Cc1ccc(NC(=O)CCn2c(=S)oc3ccccc32)cc1F,-1,4,4,5,-12,8.3*
O=C(CCn1c(=S)oc2ccccc21)Nc1cccc(F)c1,12,0,-1,8,·,-4
# Other structures.
SMILES,ARFGAP1 inh,MC4R antagonist,ASAP1 inh,CendR NRP1 mod,UUG fidelity,MC4R barr agon
CS(=O)(=O)c1ccc(Nc2nc(C(N)Cc3ccc(Cl)cc3)cs2)cc1 (centres undefined),-3,14,8,33*,-14,1
CC(=O)Nc1ccc(Oc2cc(C#N)c(C#N)cc2N2CCOCC2)cc1,12,3,7,41*,-10,-2
CC(=O)Nc1ccc(Oc2cc(C#N)c(C#N)cc2N2CCCCCC2)cc1,9,18,10,1,-17,-3
S=C(Nc1ccccc1Oc1ccccc1)Nc1cccc(Cl)c1Cl,1,3,5,28*,-5,-1
C[C@@H]1CN([C@@H](C)CO)C(=O)Cc2cc(NC(=O)Nc3ccc(F)cc3)ccc2O[C@H]1CN(C)C(=O)Nc1ccc(F)cc1,·,·,·,·,-2,·
CCOC(=O)N/N=C/c1cn(Cc2ccc(Cl)cc2)c2ccccc12,12,-5,9,1,-16,8.8*
CCOC(=O)N/N=C/c1cn(Cc2ccc(F)cc2)c2ccccc12,18,1,-1,16,·,4
N#CCC(=O)N/N=C/c1cn(Cc2ccc(Cl)cc2Cl)c2ccccc12,-1,1,-17,-10,-4,17*
CC1CCCCC1NC(=O)CSc1ncnc2sccc12 (centres undefined),9,8,-2,22*,-26,0
O=C(C[C@@H]1CC[C@@H](NC(=O)Nc2ccc(F)cc2)[C@H](CO)O1)NCc1ccccn1,·,·,·,·,-8,·
CC/C=C/C(=O)N1CC2(CC(c3cccc(NC(=O)c4ccccc4)c3)=NO2)C[C@@H]1C(N)=O (some centres undefined),-1,6,4,23*,11,-1
NC(=O)[C@H]1CC2(CC(c3cccc(NC(=O)CC(c4ccccc4)c4ccccc4)c3)=NO2)CN1C(=O)C(c1ccccc1)c1ccccc1 (some centres undefined),13,13,21,30*,-14,-2
C[C@@H]1CN([C@@H](C)CO)S(=O)(=O)c2ccc(C#Cc3cccnc3)cc2O[C@H]1CN(C)CC1CCCC1,·,·,·,·,5,·
COc1ccc(COC[C@@]23Oc4ccccc4[C@@H](NC(=O)N2C)[C@H]3COC(=O)c2ccc([N+](=O)[O-])cc2)cc1,·,·,·,·,7,·
Cc1c(C)[n+](=O)c(C)c(C)n1[O-],9,2,-1,29*,-5,-2
CCC(C)c1ccccc1NC(=O)CN(C)CCOc1ccc(Cl)cc1 (centres undefined),9,18,-1,-2,-2,8.6*
Oc1ccc(Cl)cc1Nc1nc(NCC2CCCO2)c2ccccc2n1 (centres undefined),-6,6,19,8,-11,12*
COc1ccc(NC(=O)N(C)C[C@H]2Oc3ccc(NC(=O)Cn4cnnn4)cc3C(=O)N([C@@H](C)CO)C[C@H]2C)cc1,·,·,·,·,-6,·

# Some of these compounds in order of heavy-atom count, rising:
SMILES,ARFGAP1 inh,MC4R antagonist,ASAP1 inh,CendR NRP1 mod,UUG fidelity,MC4R barr agon
CCOC(=O)N/N=C/c1cn(Cc2ccc(Cl)cc2)c2ccccc12,12,-5,9,1,-16,8.8*
Oc1ccc(Cl)cc1Nc1nc(NCC2CCCO2)c2ccccc2n1 (centres undefined),-6,6,19,8,-11,12*
CC(=O)Nc1ccc(Oc2cc(C#N)c(C#N)cc2N2CCOCC2)cc1,12,3,7,41*,-10,-2
COc1ccc(NC(=O)N(C)C[C@H]2Oc3ccc(NC(=O)Cn4cnnn4)cc3C(=O)N([C@@H](C)CO)C[C@H]2C)cc1,·,·,·,·,-6,·
C[C@@H]1CN([C@@H](C)CO)C(=O)Cc2cc(NC(=O)Nc3ccc(F)cc3)ccc2O[C@H]1CN(C)C(=O)Nc1ccc(F)cc1,·,·,·,·,-2,·
NC(=O)[C@H]1CC2(CC(c3cccc(NC(=O)CC(c4ccccc4)c4ccccc4)c3)=NO2)CN1C(=O)C(c1ccccc1)c1ccccc1 (some centres undefined),13,13,21,30*,-14,-2
